Measurements reported in patent US12415832B2, “B-catenin/B-cell Lymphoma 9 protein-protein interaction inhibiting peptidomimetics” (University of South Florida, priority 2019, dated 2025).

Tested on: SW480 cells
Conditions: 1 and 10 μM, 2 h

## Flu-Beta-Ala-SQEQLEHRERSLQTLRDIQRMLF [Peptide 1-FITC]
  cellular uptake, intracellular green fluorescence: negligible green fluorescence
